Consider three substances from patent publication US20250302968A1, “RADIATION CLEAVED DRUG-CONJUGATE LINKERS ENABLE LOCAL PAYLOAD RELEASE SCLEROSIS” (The General Hospital Corporation, priority 2022, published 2025).

Data set [1] deals with HT1080 EB3-mApple cell line. Briefly: EB3 imaging of microtubule dynamics by confocal microscopy. It is filed as cell-based. Conditions: 1 μM. The source says:
MMAE blocks the polymerization of tubulin into microtubules, which are critical cytoskeletal components that mediate mitotic cell division and metastatic invasion of cancer cells (Luthria, G. et al. Nat. Commun. 2020, 11, 3521; Dumontet, C. et al. Nat. Rev. Drug Discovery 2010, 9, 790-803). To directly visualize microtubule dynamics in live cancer cells, HT1080 EB3-mApple cell line was used, which transgenically expresses the fluorescent protein mApple fused to the protein EB3 (microtubule-associated protein RP/EB family member 3, MAPRE3). EB3 binds plus-end tips of growing microtubules, and time-lapse microscopy allows growing microtubules to be quantified for their abundance, growth velocities, and other features (Miller, M. A. et al. ACS nano 2018, 12, 12814-12826).
EB3 imaging was performed on an FV1000 confocal laser scanning microscope equipped with a 37° C. heated stage, XLUMPLFLN 20× (NA 1.0) water-immersion objective, 559 nm diode laser, and BA575-620 emission filter (all Olympus America). […] For MT tracks to be included in the downstream analyses, they must pass a strict set of filters: (1) located within a cell boundary, (2) be present in a minimum of 3 consecutive frames, (3) must have a path length less than 10 μm, (4) track persistence must be greater than 0.5 (measured on a scale of 0 to 1, with 1 indicating a line). […]

In data set [2] the test system is 8505c (human anaplastic thyroid cancer). In words: Cytotoxicity assay, 72 hour incubation, PrestoBlue (resazurin-based). It is filed as cell-based. As to the method: Experiments with cancer cells were performed to assess the degree to which the disclosed linker strategy shields biological activity of the drug payload under un-irradiated conditions, and restore drug activity once irradiated. Cancer cell lines were selected with constitutively active oncogenic signaling in the mitogen activated protein kinase (MAPK) RAS/RAF/MEK/ERK pathway, which has been previously shown as important for oncogene-driven uptake of serum albumin (Li, R. et al. Nat. Nanotechnol. 2021, 16, 830-839); cancer-types that are treated with cytotoxic agents and radiation therapy, including anaplastic thyroid cancer (ATC), a rare but aggressive malignancy that is associated with high degrees of resistance to traditional chemotherapy and radiation therapy were of particular focus. Drugs were irradiated prior to cancer cell treatment to allow assessment of drug action (caging and uncaging) independent of the biological effects of radiation to the cancer cells, which even at <10 Gy doses in cells considered radioresistant, such as human 8505c ATC cells, can substantially impact proliferation in vitro (Oweida, A. et al. Cancer Thyroid 2018, 28, 739-747). […] Similar observations were found in cells derived from a genetically engineered mouse model of ATC (the TBP-3743 cell line) and other cancer cell lines (FIG. 8c and FIG. 20).
TBP-3743 (derived from a genetically engineered mouse model of anaplastic thyroid cancer) and 8505c (human anaplastic thyroid cancer) are described previously 59, as are HT1080-EB3-mApple cells 52. Raw264.7 (mouse macrophage model, Raw-MΦ) were from ATCC. […] All cells were routinely evaluated for mycoplasma contamination and cultured following provider guidelines using 10% FBS (Bio-Techne Sales), 100 IU mL-1 penicillin, 100 μg mL-1 streptomycin (Invitrogen), with incubation at 37° C. and 5% CO2. […] After addition of the corresponding drugs and a 72 hour incubation, the number of live cells was determined by PrestoBlue (ThermoFisher, USA) staining according to the provider's protocols.
A general note: The colour change of resazurin is a common sign of viable cells or microbes.

A short description of data set [3]: Drug release upon X-ray irradiation, quantified by LC-MS. It is filed as physicochemical. The settings on record: for drug release at low radiation dose: X-ray doses of 1-2 Gy; for drug payload released from albumin-conjugate: X-ray doses of 8-16 Gy, conjugate solutions 100 μM. As to the method: The sensitivity of linker cleavage to varying doses of radiation were examined; Solutions of both conjugates at a concentration of 100 μM were irradiated at an exposure of 1-16 Gy, and LC-MS analysis was performed to determine the released drug concentrations (FIG. 7). […] With a standard protocol used in clinical treatments, patients typically receive ˜2 Gy radiation per day, 5 days a week, for ≥5 weeks, therefore yielding cumulative radiation doses of ≥50 Gy.
Determination of drug release efficiency was performed by preparing solutions of each prodrug in deionized water (0.1% DMF) to a final concentration of 10 μM. Vacuum degassing was performed by gently stirring the samples at ˜200 mbar for thirty minutes at room temperature, while degassing by argon was performed by bubbling ultra-high purity grade gas (Airgas, Lynn, MA, 01902, USA) into the solution at a rate of approximately 5 mL s-1. After these preparations, X-ray irradiation was performed using a Precision (Madison, CT, USA) X-Rad320 at a rate of 385±10 cGy/min until the desired dosage was achieved. Gamma irradiation was similarly performed on a dual source 137Cs Gammacell 40 Exactor (Best Theratronics) with a dose rate of roughly 50 cGy/min. After irradiation or other treatment, the concentration of the released drug and the intact prodrug were determined by LC-MS on a Waters instrument equipped with a Waters 2424 ELS Detector, Waters 2998 UV-Vis Diode array Detector, and a Waters 3100 Mass Detector. Drug concentrations were determined by comparing the AUC from the ELSD or isolated mass chromatographs (+ESI, 718.8 Da for MMAE, 544.4 Da for DOX) of the analyzed sample to a standard calibration curve.
For the measurement of released products relative to the X-ray dosage, DMBA-SIL-MMAE protein conjugate was prepared to a concentration of 50 μM in PBS (0.1% DMF, 5 mL), then purged with ultra-pure grade argon (5 mL s-1) for 15 minutes. The solution was then X-ray irradiated using the X-Rad320 to deliver 8 Gy irradiation and analyzed by LC-MS as described above.
For radiation release experiments, 10 μM solutions of the albumin-gardiquimod conjugate were prepared in PBS (pH 7.4). X-ray irradiation was performed using a Precision (Madison, CT, USA) X-Rad320 at a rate of 330±10 cGy/min until the desired dosage was achieved. Irradiated samples were incubated at room temperature for 1 hour following irradiation to allow for the drug to fully release. All samples were then analyzed via LC-MS and compared to a previously prepared calibration curve (5 point curve utilizing the M+H+ ESI signal) to determine the amount of free drug generated (results shown in FIG. 19)

Data set [4] has as its system 8505c cell line. In words: Subcellular localization of DOX by intrinsic fluorescence imaging. It is filed as cell-based, human. The settings on record: ATC cells (8505c). As to the method: Doxorubicin is an anthracycline that intercalates DNA, inhibits topoisomerase II, and therefore generates DNA damage leading to cell death. The 3′ amino of the daunosamine moiety on doxorubicin forms a covalent bond with the exocyclic amino of guanine, and this site is frequently modified to cage drug activity (Miller, M. A. et al. ACS nano 2018, 12, 12814-12826), as done here as well.
Subcellular localization of DOX in the 8505c cell line was measured using a modified BX63 (Olympus) inverted microscopy system equipped with an environmental chamber and robotic stage. DOX images were collected using a 40× air objective (PLAPO 40×/0.95 numerical aperture), with excitation and emission wavelengths of 489 nm and 508 nm, respectively. All images were processed using cellSens Dimension 3.1.1 (Olympus, USA) and ImageJ 1.53k (NIH, USA) software. Nuclear to cytoplasm fluorescence ratios were calculated and plotted using Excel (Microsoft) and Prism (GraphPad). 20 μM concentration of free (or released) DOX was used, and unirradiated prodrug used the same total (caged and uncaged) DOX concentration as used in the irradiated sample. Following treatment for 72 hours, live cells were immediately imaged by confocal microscopy.

Data set [5] deals with HT1080 cancer cells. In words: Intracellular release of MMAE from albumin conjugate in live cells after X-ray irradiation, LC-MS. It is filed as cell-based. The settings on record: 24 hour incubation, then 10 Gy irradiation. As to the method:
HT1080 cells stably expressing H2B-mApple were prepared as previously described (HT1080 H2B-mApple [Dubach et al., 2017, Nature Chemical Biology, 13, 168-173]). Intracellular release of MMAE from the MSA conjugate was measured by preparing confluent 15 cm culture plates of HT1080-mApple cells and adding the conjugate to a final concentration of 10 μM. These plates were incubated for 24 hours, then X-ray irradiated (10 Gy) and the cells were washed 3 times with PBS. Cell lysis buffer (Invitrogen, 100 μL) was then added to each plate and a cell scraper was used to dislodge the cells. The resulting cell suspension was kept on ice for 30 minutes before a solution of 10% silver nitrate in acetonitrile was added (5 fold dilution). After incubating for a further 10 minutes on ice, the suspensions were centrifuged (10,000 g for 5 min) and the supernatant was analyzed via LC-MS to determine the percentage of MMAE released. A comparison of the various prodrug conjugates was performed by preparing confluent HT1080-mApple cells in a 6-well plate. The cells were then treated with either free drug or the corresponding MSA conjugate, lysed and analyzed as described above (results shown in FIG. 18).

Data set [6] concerns subcutaneous MC38 tumors. In words: MMAE release in irradiated versus non-irradiated contralateral tumors, LC/MS. The settings on record: prodrug intravenously 24 hours prior to 10 Gy local irradiation; bilateral tumors excised after 10 minutes. It is filed as in vivo, C57BL/6 mice. As to the method: pATFB-caged compounds are chemically activatable in live cell cultures. Cancer cells treated with Alb-pATFB-SIL-MMAE accumulate the albumin vehicle, and subsequent 10 Gy irradiation activates roughly 50% of the drug (FIG. 18A). […] Alb-pATFB-SIL-MMAE prodrug was given intravenously 24 hours prior to 10 Gy irradiation locally at the tumor site. Irradiated and non-irradiated bilateral tumors were then excised after 10 minutes and examined by LC/MS for accumulation of activated uncaged MMAE (FIG. 18B).
All animal research was performed in accordance with guidelines from the Institutional Subcommittee on Research Animal Care. MC38 tumors were generated by injecting 106 cells into C57BL/6 mice on either flank. These mice were then treated with MSA-pATFB-SIL-MMAE conjugate via tail vein injection (0.2 mg prodrug per mouse). After 24 hours, these mice were X-ray irradiated (10 Gy) on one of their tumors, leaving the contralateral tumor as a negative control. The tumors were then harvested and minced in 100 μL lysis buffer (Invitrogen). The lysate was stored on ice for 1 hour before it was diluted 5-fold with 10% silver nitrate in acetonitrile. This suspension was incubated on ice for 10 minutes, then centrifuged (10,000 g for 5 min) and the supernatant was analyzed by LC-MS to determine the total drug in solution. […]

For Alb-DMBA-SIL-MMAE, the “impact on cancer cell microtubule dynamics, irradiated” value in data set [1] (after argon purging and X-ray irradiation (8 Gy)) is recorded as “totally eliminated”. Besides, in data set [1] (un-irradiated), the “impact on cancer cell microtubule dynamics, un-irradiated” value is “no significant impacts”. In addition, the “fold lower cytotoxicity compared to the parent MMAE drug” value in data set [2] (un-irradiated conjugate, 8505c cells) was 5,700 fold. In addition, the “fold lower cytotoxicity than the un-anchored compounds DMBA-SIL-MMAE and MMAE-DMBA” value in data set [2] (un-irradiated, 8505c cells) is reported as around 40 fold. In addition, in data set [3], the “drug release at low radiation dose” value is on record as “detectable drug release” and the “drug payload released from albumin-conjugate” value is on record as 66±6%.

For the substance Alb-DMBA-SIL-DOX, in data set [4] (conjugate X-ray irradiated (8 Gy)), the “subcellular distribution of DOX fluorescence, irradiated conjugate” value is listed as “nuclear accumulation”. Further, the “subcellular distribution of DOX fluorescence, unirradiated conjugate” value in data set [4] (unirradiated) is recorded as “confined to the cytoplasm”. Besides, in data set [2] (un-irradiated, 8505c ATC cells), the “fold higher IC50 than that observed for the parent drug” value was “roughly 100 fold”. In data set [3], the “drug release at low radiation dose” value is recorded as “detectable drug release” and the “drug payload released from albumin-conjugate” value is 69±8%.

For Alb-pATFB-SIL-MMAE, the “fraction of drug activated in live cancer cells” value in data set [5] is listed as “roughly 50%”. The “accumulation of activated uncaged MMAE in tumors” value in data set [6] is “accumulation of chemically activated MMAE payload in irradiated but not non-irradiated tumors”.
